Measurements published in patent US5968513A (priority 1996, dated 1999).
“And” between values parts separate entries of the source, which are not always exact repeats. Equal entries are not always repeated. “Also recorded” adds a separate entry of the source. Where two headings read alike, the source gives them in different places.

Assays:
[1] = tested on: hematopoietic cell proliferation; assay: Comparison of commercial hCG preparations on hematopoietic cell proliferation in vitro and in vivo
Kaposi's sarcoma [2] = assay: Kaposi's sarcoma response of patients treated with hCG preparations; assay type: in vivo, human; settings: for KS response described in text: individual patients or patient groups on hCG; for KS response: individual patients, Table 2; for clearance of visceral (lung and gastrointestinal) KS: very advanced disease, systemic therapy, within 1 to 3 months of initiating therapy
[3] = tested on: Hematopoietic progenitor cells from normal bone marrow and cord blood; assay: Clonogenic (colony) assays of hematopoietic progenitor cells in methylcellulose (CFU-MIX, BFU-e, CFU-GM); assay type: cell-based, human; settings: hCG preparations 200 IU/ml, subunits and peptides 100 μg/ml, 10 days, aggregates of more than 50 cells counted
From the text: Hematopoietic progenitor cells (2×10^5 cell/ml) were isolated from normal bone marrow and cord blood and seeded in methylcellulose. […] Aggregates containing more than 50 cells after 10 days of culture were counted as colonies.

SIVmac251 = assay: Effects of hCG preparation in SIV infected rhesus monkeys; assay type: in vivo, rhesus monkey; settings: for Weight gain / SIV p27 antigen in plasma / CD4^+ T cells: SIVmac251 infected rhesus monkeys, 3 treated; for Weight gain / CD4^+ T cells: 3,000 IU 2 times weekly; for SIV p27 antigen in plasma: 3,000 IU 2 times weekly (6,000 IU per week) from 3 weeks after inoculation, followed 7 months; for CD4^+ T cells: maintained over 7 months
[4] = hCG preparation in normal uninfected monkeys (CD4+ T cells, weight); assay type: in vivo, monkey; settings: 2 uninfected treated animals, increasing from 460 and from 470; hCG (APL) per FIG. 1D legend
From the text: SIV was given intravenously at a dose of 10^4.5 TCID50 per ml. (A) SIV titer was monitored over time in months by quantifying the p27 gag protein (Organon Teknika assay) as nanograms (ng) of p27/ml of plasma from the plasma of the SIV infected macaques. […] Plasma levels of p27 gag in these treated monkeys are indicated on the graph by lines with diamonds, number (#) signs or filled circles. Results with the untreated SIV-infected macaques (indicated UnRx) are indicated by the lines with either stars or triangles. […] (C) Change in weight in kilograms (kg) was monitored in treated and untreated SIV-infected monkeys over time in months. […] CD4^+ T cell levels in the untreated monkeys are indicated by lines with sun-like figures or squares, and the results in the treated monkeys are indicated by lines with pentagonal figures or with filled inverted triangles.
In FIG. 1D, results are shown from 4 uninfected controls. […] There is a slight increase in the CD4^+ T cells in the treated animals (increasing from 460 mm^3 to 520 mm^3 and from 470 mm^3 to 650 mm^3) (FIG. 1D).

[5] = hCG weekly dosing in mice; assay type: in vivo; settings: 300-500 I.U. weekly
Kaposi's sarcoma [6] = settings: cited from earlier work; for dose dependent effect, regression of treated KS lesions: California patients (Gill et al., 1996)

hCG from Fujisawa: (non-recombinant) commercial hCG preparation from Fujisawa
relative effectiveness among (non-recombinant) commercial hCG preparations [1]: the most effective

Pregnyl: commercial hCG preparation Pregnyl, Organon
KS response described in text (Kaposi's sarcoma [2]): regression of recurrent cutaneous KS
KS response (Kaposi's sarcoma [2]; listed as P): Stable
clearance of visceral (lung and gastrointestinal) KS (Kaposi's sarcoma [2]): striking clearance
relative effectiveness among (non-recombinant) commercial hCG preparations [1]: the next most effective

pure hCG heterodimer (CR127): purified hCG heterodimer CR 127, highly purified hCG preparation
growth of hematopoietic progenitors (pro-hematopoietic activity, colony numbers) ([3]; listed as highly purified (to homogeneity) hCG heterodimer): no pro-hematopoietic activity

hCG (APL): commercially available partially purified hCG preparation APL, Wyeth Ayerst
Weight gain (SIVmac251): 2 to 4 kg
SIV p27 antigen in plasma (SIVmac251): marked decrease
CD4^+ T cells (SIVmac251): increase in CD4^+ T cells to normal levels
evidence of disease or SIV resistance to the hCG preparation (SIVmac251; followed for 7 months): no evidence of disease or SIV resistance
KS response (Kaposi's sarcoma [2]; listed as A): Stable
clearance of visceral (lung and gastrointestinal) KS (Kaposi's sarcoma [2]): striking clearance
growth of hematopoietic progenitors (pro-hematopoietic activity, colony numbers) [3]: directly promoted
growth of hematopoietic progenitors (pro-hematopoietic activity, colony numbers) ([3]; listed as native partially purified hCG heterodimer): considerable pro-hematopoietic activity
relative effectiveness among (non-recombinant) commercial hCG preparations ([1]; listed as APL): usually more active
relative effectiveness among (non-recombinant) commercial hCG preparations ([1]; listed as hCG from APL (Wyeth-Ayerst)): the next most effective

Human Chorionic Gonadotropin [hCG]
effectiveness of weekly hCG doses in monkeys (SIVmac251; 6,000 I.U. weekly): effective
Weight gain (SIVmac251): weight gain
SIV p27 antigen in plasma (SIVmac251): reduction of SIV in plasma
CD4^+ T cells (SIVmac251): increase in CD4^+ T cells
CD4^+ T cells after treatment [4]: 520 mm^3 and 650 mm^3
KS response described in text (Kaposi's sarcoma [2]): responded; also recorded: complete regression; also recorded: exhibited a KS response; also recorded: partial responses; also recorded: did not respond; also recorded: stabilization of pulmonary disease; also recorded: complete response; also recorded: dramatically improved their pulmonary function test; also recorded: regression of KS lesions was observed
patients with marked responses (Kaposi's sarcoma [2]; of 10 patients with advanced disease treated systemically, 15,000 to 30,000 IU): 6
additional patients with KS responses by ACTGO criteria (Kaposi's sarcoma [2]; of 15 protocol patients from the Belgium trial): 4
patients with substantial anti-KS effect / regression of KS disease (Kaposi's sarcoma [2]; systemic protocol 35,000 IU/week, patients followed for more than 4 months): 4 of the 5 patients and 4 of 5 patients
effectiveness of weekly hCG doses in mice [5]: effective
dose dependent effect, regression of treated KS lesions (Kaposi's sarcoma [6]; intralesional hCG 250 IU): 16%
dose dependent effect, regression of treated KS lesions (Kaposi's sarcoma [6]; intralesional hCG 2,000 IU): 83%
partial or complete regression of treated lesions, patients (Kaposi's sarcoma [6]; low dose intralesional hCG, initial pilot study in Belgium (Hermans et al., 1995)): 3 of the first 4 patients
